Experimental data: publication PMC3961306, “Comparison of the Cancer Gene Targeting and Biochemical Selectivities of All Targeted Kinase Inhibitors Approved for Clinical Use” (PLoS ONE, 2014)

Legend:
Assay in all cases: Kinase profiling in a biochemical assay panel (mobility shift assays and ELISA), %-inhibition at 1 μM; selectivity entropy
Conditions in all cases: 1 µM
[1] = target: panel of more than 300 wild-type and mutant kinases (313 kinase panel) (Homo sapiens, UniProt P43405)
[2] = target: panel of more than 300 wild-type and mutant kinases (313 kinase panel) (Homo sapiens, UniProt O15146)
[3] = target: panel of more than 300 wild-type and mutant kinases (313 kinase panel) (Homo sapiens, UniProt P09769)
[4] = target: panel of more than 300 wild-type and mutant kinases (313 kinase panel) (Homo sapiens, UniProt P22455, N535K)
[5] = target: panel of more than 300 wild-type and mutant kinases (313 kinase panel) (Homo sapiens, UniProt P29320)
[6] = target: panel of more than 300 wild-type and mutant kinases (313 kinase panel) (Homo sapiens, UniProt Q08345)
[7] = target: panel of more than 300 wild-type and mutant kinases (313 kinase panel) (Homo sapiens, UniProt Q13163)
[8] = target: panel of more than 300 wild-type and mutant kinases (313 kinase panel) (Homo sapiens, UniProt Q15831)
[9] = target: panel of more than 300 wild-type and mutant kinases (313 kinase panel) (Homo sapiens, UniProt Q8N4C8)
[10] = target: panel of more than 300 wild-type and mutant kinases (313 kinase panel) (Homo sapiens, UniProt Q96RG2)
[11] = target: panel of more than 300 wild-type and mutant kinases (313 kinase panel) (Homo sapiens, UniProt Q99759)

SMILES | %-inhibition of SYK [1] [%] | %-inhibition of MUSK [2] [%] | %-inhibition of FGR [3] [%] | %-inhibition of FGFR4(N535K) [4] [%] | %-inhibition of EPHA3 [5] [%] | %-inhibition of DDR1 [6] [%] | %-inhibition of MAP2K5 [7] [%] | %-inhibition of LKB1 [8] [%] | %-inhibition of MINK [9] [%] | %-inhibition of PASK [10] [%] | %-inhibition of MAP3K3 [11] [%]
COc1cc2ncnc(Nc3ccc(F)c(Cl)c3)c2cc1OCCCN1CCOCC1 [gefitinib] | 5 | – | – | – | – | – | – | – | – | – | –
C[C@@H]1CCN(C(=O)CC#N)C[C@@H]1N(C)c1ncnc2[nH]ccc12 [tofacitinib] | – | 1 | -0.222 | 2.75 | -16 | 7 | 0.925 | -5 | -1.35 | -1.41 | -15
